Molecular target: Delta-type opioid receptor (Homo sapiens, UniProt P41143)

Chains of the proteins cited; added tags and fusions are not shown.
UniProt P41143, whole entry, looked up: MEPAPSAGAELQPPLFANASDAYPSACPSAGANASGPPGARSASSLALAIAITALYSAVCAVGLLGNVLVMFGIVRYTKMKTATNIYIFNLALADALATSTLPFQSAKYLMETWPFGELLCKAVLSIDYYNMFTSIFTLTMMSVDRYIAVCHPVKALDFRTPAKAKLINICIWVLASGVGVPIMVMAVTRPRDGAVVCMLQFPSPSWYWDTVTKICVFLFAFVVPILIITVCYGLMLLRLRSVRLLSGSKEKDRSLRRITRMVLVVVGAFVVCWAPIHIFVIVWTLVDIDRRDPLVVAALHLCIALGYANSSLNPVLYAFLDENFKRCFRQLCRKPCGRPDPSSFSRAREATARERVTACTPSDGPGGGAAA

CN(C(=O)Cc1ccccc1)[C@H]1C[C@@]2(CCCO2)CC[C@@H]1N1CCCC1
Ki: > 10 µM

Reference: BindingDB's records for 12930147, “Synthesis, biological evaluation, and receptor docking simulations of 2-[(acylamino)ethyl]-1,4-benzodiazepines as kappa-opioid receptor agonists endowed with antinociceptive and antiamnesic activity” (2003)
